Measured values: US20110091544A1 (priority 2009, published 2011)

Columns and labels:
[1] = system: dental outpatients; conditions: both oral and sublingual; cited from earlier work
[2] = IV; cited from earlier work
[3] = Phase 1 clinical study of sublingual sufentanil, slow-eroding formulation (Examples 1A, 1B), plasma pharmacokinetics, naltrexone-blocked
[4] = Phase 1 clinical study of sublingual sufentanil, faster-eroding formulation (Examples 1C, 1D), plasma pharmacokinetics, naltrexone-blocked
[5] = swallowed drug; cited from earlier work

Row | SMILES | Tmax [1] | administered dose excreted in 24 hours [2] [%] | plasma elimination half-life [2] [min] | Tmax ([3]; 2.5 mcg single sublingual, slow-eroding formulation) [min] | Tmax ([3]; 4 × 5 mcg sublingual at 10-minute intervals, slow-eroding formulation) [min] | Tmax ([3]; 5 mcg IV, 10-minute infusion) [min] | Tmax ([3]; 5 mcg single sublingual, slow-eroding formulation) [min] | Tmax ([3]; 10 mcg single sublingual, slow-eroding formulation) [min] | Tmax ([4]; 4 × 10 mcg sublingual at 20-minute intervals, faster-eroding formulation) [min] | Tmax ([4]; 5 mcg IV, 10-minute infusion) [min] | Tmax ([4]; 10 mcg single sublingual, faster-eroding formulation) [min] | Tmax ([4]; 80 mcg single sublingual, faster-eroding formulation) [min] | bioavailability from the GI route [5] [%]
1 | CCC(=O)N(c1ccccc1)C1(COC)CCN(CCc2cccs2)CC1 | approximately 90 minutes | 80 | 148 | 43.8 ± 7.8 | 69.6 ± 13.8 | 9.6 ± 1.8 | 46.2 ± 17.4 | 40.8 ± 13.2 | 84.6 ± 15 | 10.2 ± 0 | 50.4 ± 21 | 53.4 ± 21 | –
2 | CCC(=O)N(c1ccccc1)C1CCN(CCc2ccccc2)CC1 | – | – | – | – | – | – | – | – | – | – | – | – | 30

This is a selection: effects in other tests are not listed, and their absence says nothing.
